# Assay results reported in US20210221866A1, “PROTEASE-RESISTANT LIPIDATED GLP-1 ANALOGS” (MEDIMMUNE LIMITED, priority 2015, published 2021).
# Sequences of proteins named here, by UniProt entry; tags and fusion partners are left off. A change or cut given only in a name is not applied to a line headed by its entry. Residues count along the entry.
# UniProt P00761, 9-231: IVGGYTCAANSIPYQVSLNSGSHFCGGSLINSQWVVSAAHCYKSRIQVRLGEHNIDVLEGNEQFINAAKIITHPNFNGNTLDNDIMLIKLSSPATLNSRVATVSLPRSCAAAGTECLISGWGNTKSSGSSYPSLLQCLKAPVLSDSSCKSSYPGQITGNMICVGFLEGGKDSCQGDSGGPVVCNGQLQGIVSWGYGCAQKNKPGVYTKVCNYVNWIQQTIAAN
# UniProt P00791, 60-385: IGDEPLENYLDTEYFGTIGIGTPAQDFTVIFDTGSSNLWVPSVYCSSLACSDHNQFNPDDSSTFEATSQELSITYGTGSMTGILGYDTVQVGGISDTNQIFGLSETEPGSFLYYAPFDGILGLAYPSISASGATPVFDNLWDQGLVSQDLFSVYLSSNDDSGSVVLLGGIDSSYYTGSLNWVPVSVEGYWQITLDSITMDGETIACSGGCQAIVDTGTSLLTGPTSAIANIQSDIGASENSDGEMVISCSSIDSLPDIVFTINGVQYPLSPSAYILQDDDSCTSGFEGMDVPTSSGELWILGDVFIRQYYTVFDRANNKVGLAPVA
# UniProt P08473: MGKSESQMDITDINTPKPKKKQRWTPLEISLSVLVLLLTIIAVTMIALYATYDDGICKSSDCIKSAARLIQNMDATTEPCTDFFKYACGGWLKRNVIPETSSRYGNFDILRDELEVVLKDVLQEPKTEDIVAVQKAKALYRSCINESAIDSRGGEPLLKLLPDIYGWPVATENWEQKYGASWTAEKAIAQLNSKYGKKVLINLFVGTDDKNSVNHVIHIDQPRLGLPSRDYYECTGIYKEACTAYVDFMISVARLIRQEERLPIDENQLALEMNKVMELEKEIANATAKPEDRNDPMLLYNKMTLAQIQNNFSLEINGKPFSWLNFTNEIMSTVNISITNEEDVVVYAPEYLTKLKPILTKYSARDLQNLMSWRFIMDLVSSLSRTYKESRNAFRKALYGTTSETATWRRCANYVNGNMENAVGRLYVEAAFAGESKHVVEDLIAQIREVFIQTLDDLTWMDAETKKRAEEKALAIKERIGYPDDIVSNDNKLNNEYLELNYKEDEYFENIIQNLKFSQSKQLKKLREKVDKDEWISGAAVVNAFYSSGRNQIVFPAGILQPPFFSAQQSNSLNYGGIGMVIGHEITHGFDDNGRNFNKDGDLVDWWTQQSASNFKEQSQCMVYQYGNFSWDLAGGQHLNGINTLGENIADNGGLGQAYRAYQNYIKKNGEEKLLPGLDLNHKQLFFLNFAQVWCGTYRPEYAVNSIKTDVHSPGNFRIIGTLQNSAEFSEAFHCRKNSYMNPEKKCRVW
# What was measured:
# [1] = molecular target: porcine pancreatic trypsin (Sus scrofa, UniProt P00761); test: Proteolytic resistance to trypsin (% remaining intact peptide, RP-HPLC AUC); assay type: in vitro ADME; conditions: 37° C., pH 7.8
# [2] = molecular target: T1, porcine pancreatic pepsin (Sus scrofa, UniProt P00791); test: Proteolytic resistance to pepsin (% remaining intact peptide, RP-HPLC AUC); assay type: in vitro ADME; conditions: 37° C., pH 2.0
# T1 construct: purchased Sigma P7012
# Procedure: Pepsin: Lyophilized porcine pancreatic pepsin (Sigma: P7012) was reconstituted to afford a solution of 200 μg/mL (˜500 units/mL) in assay buffer (0.1 M HCl, pH 2.0) to give the enzyme stock solution. […] Ratio enzyme (units):peptide (moles) ˜1:6. […] Ratio enzyme (units):peptide (μmoles) ˜2:1.
# Lyophilized porcine pancreatic pepsin (Sigma: P7012) was reconstituted to […] (˜500 units/mL) in assay buffer ([…], pH 2.0) to give the enzyme stock solution.
# [3] = tested on: recombinant α-chymotrypsin; test: Proteolytic resistance to α-chymotrypsin (% remaining intact peptide, RP-HPLC AUC); conditions: t = 0; 37° C., pH 7.8
# [4] = tested on: FASSIF/Pancreatin® activated with 100 μg/mL human enterokinase; test: Proteolytic resistance to FASSIF/Pancreatin following full zymogen activation with enterokinase; assay type: in vitro ADME; conditions: t = 0; 37° C.
# Procedure: A fresh suspension of FASSIF/P (Fasted-State Simulated Intestinal Fluid+USP Pancreatin®) was prepared according to that described by Galia, Nicolaides, Hörter, Lobenberg, Reppas and Dressman: Pharm. […] To the resulting preparation was added human enterokinase (100 μg/mL) to ensure the potential for full zymogen activity of the mixture which was used immediately without storage. Peptides for evaluation (1.0 mg, ˜250 nmoles) were initially dissolved in pre-warmed FASSIF without Pancreatin® (200 μL) to which was added pre-warmed fresh FASSIF/Pancreatin® ([…]) to initiate potential digestion. Following momentary vortexing of the Eppendorf reaction tube the mixture was incubated at 37° C. in a thermostatic waterbath for the duration of the experiment. 25 μL aliquots of the co-incubated peptide-enzyme mixture were periodically withdrawn (t=0, 5 m, 10 m, 15 m, 30 m, 1 h, 2 h) and quenched immediately by addition to a solution of 10% TFA in 1:1 water/acetonitrile (75 μL) to arrest proteolytic activity.
# [5] = molecular target: T2, recombinant Neprilysin (Homo sapiens, UniProt P08473); test: Proteolytic resistance to neprilysin (% remaining peptide, RP-HPLC AUC); assay type: in vitro ADME; conditions: 37° C., pH 8.3, enzyme:peptide ~1:33 for non-lipidated, ~1:2.5 for lipidated peptides
# T2 construct: purchased R&D Systems 1182-ZNC-010
# From the text: Ratio enzyme (units):peptide (moles) ˜1:33. […] Ratio enzyme (units):peptide (moles) ˜1:2.5.
# [6] = tested on: FASSIF/P (Fasted-State Simulated Intestinal Fluid+USP Pancreatin®); test: Proteolytic resistance to fasted-state simulated intestinal fluid (FASSIF/Pancreatin); assay type: in vitro ADME; conditions: t = 0; 37° C.
# Procedure: A fresh suspension of FASSIF/P (Fasted-State Simulated Intestinal Fluid+USP Pancreatin®) was prepared according to that described by Galia, Nicolaides, Hörter, Lobenberg, Reppas and Dressman: Pharm. Res. 15 (1998) 698-705. The resulting preparation is proteolytically equivalent to ˜375 units/mL (375 kU/L) and was used immediately without storage. Peptides for evaluation (1.0 mg, ˜250 nmoles) were initially dissolved in pre-warmed FASSIF without Pancreatin® (200 μL) to which was added pre-warmed fresh FASSIF/Pancreatin® (100 μL) to initiate potential digestion. Following momentary vortexing of the Eppendorf reaction tube the mixture was incubated at 37° C. in a thermostatic waterbath for the duration of the experiment. 25 μL aliquots of the co-incubated peptide-enzyme mixture were periodically withdrawn (t=0, 5 m, 10 m, 15 m, 30 m, 1 h, 2 h) and quenched immediately by addition to a solution of 10% TFA in 1:1 water/acetonitrile (75 μL) to arrest proteolytic activity.
# [7] = Proteolytic resistance to α-chymotrypsin (% remaining intact peptide, RP-HPLC AUC); conditions: recombinant α-chymotrypsin in assay buffer, pH 7.8
molecule,measurement,setting,value
H-Aib^2-EGTFTSDVSSYLEGQAAK(ε-(PEG)2-(PEG)2-γE-stearate)EFIAWLVRGRG-acid [Semaglutide],Percentage remaining intact peptide (AUC by RP-HPLC) upon incubation with trypsin,[1]; t = 0,100.0%
same,Percentage remaining intact peptide (AUC by RP-HPLC) upon incubation with trypsin,[1]; t = 30 min,0.0%
same,Percentage remaining intact peptide (AUC by RP-HPLC) upon incubation with trypsin,[1]; t = 1 hr,0.0%
same,Percentage remaining intact peptide (AUC by RP-HPLC) upon incubation with trypsin,[1]; t = 2 hr,0.0%
same,Percentage remaining intact peptide (AUC by RP-HPLC) upon incubation with trypsin,[1]; t = 4 hr,0.0%
same,Percentage remaining intact peptide (AUC by RP-HPLC) upon incubation with trypsin,[1]; t = 8 hr,0.0%
same,Percentage remaining intact peptide (AUC by RP-HPLC) upon incubation with trypsin,[1]; t = 24 hr,0.0%
same,Percentage remaining intact peptide (AUC by RP-HPLC) upon incubation with pepsin,[2]; t = 0,100%
same,Percentage remaining intact peptide (AUC by RP-HPLC) upon incubation with pepsin,[2]; t = 30 min,10.4%
same,Percentage remaining intact peptide (AUC by RP-HPLC) upon incubation with pepsin,[2]; t = 1 hr,0.0%
same,Percentage remaining intact peptide (AUC by RP-HPLC) upon incubation with pepsin,[2]; t = 2 hr,0.0%
same,Percentage remaining intact peptide (AUC by RP-HPLC) upon incubation with pepsin,[2]; t = 4 hr,0.0%
same,Percentage remaining intact peptide (AUC by RP-HPLC) upon incubation with pepsin,[2]; t = 8 hr,0.0%
same,Percentage remaining intact peptide (AUC by RP-HPLC) upon incubation with pepsin,[2]; t = 24 hr,0.0%
same,Percentage remaining intact peptide (AUC by RP-HPLC) upon incubation with α-chymotrypsin,[3],100%
same,Percentage remaining intact peptide (AUC by RP-HPLC) upon incubation with FASSIF activated with 100 μg/mL enterokinase,[4],100%
same,"Percentage remaining peptide (AUC at specified time-point by RP-HPLC) upon incubation with neprilysin, t = 0",[5]; t = 0 (baseline),100%
same,"Percentage remaining peptide (AUC at specified time-point by RP-HPLC) upon incubation with neprilysin, t = 30 min",[5]; t = 30 min,93.8%
same,"Percentage remaining peptide (AUC at specified time-point by RP-HPLC) upon incubation with neprilysin, t = 1 hr",[5]; t = 1 hr,92.2%
same,"Percentage remaining peptide (AUC at specified time-point by RP-HPLC) upon incubation with neprilysin, t = 2 hr",[5]; t = 2 hr,84.9%
same,"Percentage remaining peptide (AUC at specified time-point by RP-HPLC) upon incubation with neprilysin, t = 4 hr",[5]; t = 4 hr,78.1%
same,"Percentage remaining peptide (AUC at specified time-point by RP-HPLC) upon incubation with neprilysin, t = 8 hr",[5]; t = 8 hr,61.3%
same,"Percentage remaining peptide (AUC at specified time-point by RP-HPLC) upon incubation with neprilysin, t = 24 hr",[5]; t = 24 hr,29.8%
same,Percentage remaining intact peptide (AUC by RP-HPLC) upon incubation with fasted-state simulated intestinal fluid (FASSIF/P),[6],100%
CCCCCCCCCCCC(=O)N[C@@H](CCC(=O)NCCOCCOCC(=O)NCCOCCOCC(=O)NCCCC[C@H](NC(=O)[C@H](C)NC(=O)[C@@H](NC(=O)[C@H](Cc1ccccc1)NC(=O)[C@H](CCC(=O)O)NC(=O)[C@](C)(CCCCN)NC(=O)[C@H](C)NC(=O)[C@H](C)NC(=O)[C@H](CCC(=O)O)NC(=O)CNC(=O)[C@H](CCC(=O)O)NC(=O)[C@H](CC(C)C)NC(=O)[C@H](CCCCNC(=O)COCCOCCNC(=O)COCCOCCNC(=O)CC[C@H](NC(=O)CCCCCCCCCCC)C(=O)O)NC(=O)[C@H](CO)NC(=O)[C@](C)(CO)NC(=O)[C@@H](NC(=O)[C@H](CC(=O)O)NC(=O)[C@H](CO)NC(=O)[C@@H](NC(=O)[C@](C)(Cc1ccccc1)NC(=O)[C@H](CO)NC(=O)CNC(=O)[C@H](CCC(=O)O)NC(=O)C(C)(C)NC(=O)[C@@H](N)Cc1c[nH]cn1)[C@@H](C)O)C(C)C)[C@@H](C)CC)C(=O)N[C@H](C(=O)N[C@H](C(=O)N[C@@H](CCC(=O)O)C(=O)NCC(=O)NCC(N)=O)C(C)C)C(C)C)C(=O)O [compound 263],remaining at 2 h,[7],92.2%
